The other results are listed elsewhere or left out.
T1: LIN28A (human?, UniProt Q9H9Z2 1-209)
T1 sequence: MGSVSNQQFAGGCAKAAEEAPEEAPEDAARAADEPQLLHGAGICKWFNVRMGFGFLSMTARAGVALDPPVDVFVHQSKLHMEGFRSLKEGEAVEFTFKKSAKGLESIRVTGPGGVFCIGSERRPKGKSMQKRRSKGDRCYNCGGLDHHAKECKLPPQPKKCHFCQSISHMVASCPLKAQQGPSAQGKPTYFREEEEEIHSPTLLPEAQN

T2: CIRBP (Homo sapiens, UniProt Q14011 1-172)
T2 sequence: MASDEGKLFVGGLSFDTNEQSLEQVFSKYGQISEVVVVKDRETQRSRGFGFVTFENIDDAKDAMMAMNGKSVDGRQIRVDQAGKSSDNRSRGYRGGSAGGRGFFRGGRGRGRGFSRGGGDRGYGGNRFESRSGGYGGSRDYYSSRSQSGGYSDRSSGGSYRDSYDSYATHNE

T3: DHX36 (Homo sapiens, UniProt Q9H2U1 1-1008)
T3 sequence: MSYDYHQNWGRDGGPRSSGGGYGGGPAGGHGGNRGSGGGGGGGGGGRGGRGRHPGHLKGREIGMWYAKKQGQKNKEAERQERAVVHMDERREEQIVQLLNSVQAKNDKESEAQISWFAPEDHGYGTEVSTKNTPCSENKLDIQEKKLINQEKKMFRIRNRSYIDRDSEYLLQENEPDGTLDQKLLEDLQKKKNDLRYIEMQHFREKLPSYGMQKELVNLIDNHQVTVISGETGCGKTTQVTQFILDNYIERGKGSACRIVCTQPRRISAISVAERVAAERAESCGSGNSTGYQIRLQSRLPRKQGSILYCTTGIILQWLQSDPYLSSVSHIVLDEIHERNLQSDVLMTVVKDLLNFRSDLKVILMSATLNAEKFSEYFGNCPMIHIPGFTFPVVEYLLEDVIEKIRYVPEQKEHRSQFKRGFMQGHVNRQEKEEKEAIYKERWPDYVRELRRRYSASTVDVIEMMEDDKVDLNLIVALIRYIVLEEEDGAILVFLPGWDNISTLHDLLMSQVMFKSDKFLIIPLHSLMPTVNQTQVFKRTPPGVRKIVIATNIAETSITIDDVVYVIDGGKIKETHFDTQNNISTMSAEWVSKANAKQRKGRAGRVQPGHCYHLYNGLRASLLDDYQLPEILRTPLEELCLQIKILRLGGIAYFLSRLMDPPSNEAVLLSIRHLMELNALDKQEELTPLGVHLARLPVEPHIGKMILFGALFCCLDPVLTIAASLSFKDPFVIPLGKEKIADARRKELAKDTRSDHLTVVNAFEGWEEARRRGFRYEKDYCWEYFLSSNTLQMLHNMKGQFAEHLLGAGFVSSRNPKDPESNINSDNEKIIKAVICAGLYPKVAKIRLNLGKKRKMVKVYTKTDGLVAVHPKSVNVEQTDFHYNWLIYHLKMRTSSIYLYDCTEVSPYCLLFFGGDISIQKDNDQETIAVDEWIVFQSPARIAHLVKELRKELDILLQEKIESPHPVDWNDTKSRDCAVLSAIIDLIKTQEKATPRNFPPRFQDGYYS

B1: hsa-mir-4776-2 (structured_RNA)
RNA: GGGAGGAUUGAAGCACGCGAGUAACUUAGGUGUACGAAGUUUCAGCCAAGGGCUCUACUGUCCUUUCAGGAGAGCCCUUGGCUGAAGCUUCGUGCAC
B2: hsa-mir-650 (structured_RNA)
RNA: GGGAACAUGGAAUAGCUGUAGCUAGAAUGGUGUACGAAGUUUCAGCGGACGUCACCACCAUGGCCGCUGAAGCUUCGUGCAC
B3: hsa-mir-184 (structured_RNA)
RNA: GGGAAACAAAGGCGGAAAAGCUCCACUGGGUGUACGAAGUUUCAGCCCCAGCUUUGUGACUGUAAGUGUUGGAGCUGAAGCUUCGUGCAC
B4: hsa-mir-604 (structured_RNA)
RNA: GGGAAAGAAACCAAGUCCCUCAGGUAAAGGUGUACGAAGUUUCAGCCUCUCGUGUCCACUAGCAGGCAGGUUUUCUGACACAGGGCUGAAGCUUCGUGCAC
B5: PARIS_ID11 (structured_RNA)
RNA: GGGACCACUACCACAACGGAAGCCACUAGGUGUACGAAGUUUCAGCUGACUAAAUACUGUCUUUGAUUUUUUGUUCCAGGUCUGUCAGCUGAAGCUUCGUGCAC
B6: hsa-mir-6796 (structured_RNA)
RNA: GGGAAGUCGUCAGACCAUACGUAGUUAAGGUGUACGAAGUUUCAGCCUGGCUGGUCCAGCCCCUCAGAAGGCUGAAGCUUCGUGCAC
B7: hsa-mir-4293 (structured_RNA)
RNA: GGGACAGGGUCGCCCAUUUCGUAAUAGUGGUGUACGAAGUUUCAGCGCUGGUGACAUUGCUAAUUCAUUUCACACCAGCGCUGAAGCUUCGUGCAC
B8: hsa-mir-3138 (structured_RNA)
RNA: GGGACCAUAAGAGGACGCACAGAACUUCGGUGUACGAAGUUUCAGCCCGGGUGCCCACAAGACUGUGGCUGAAGCUUCGUGCAC
B9: hsa-mir-125a (structured_RNA)
RNA: GGGAAGUGCCUCGACGCAGCAAUACGUCGGUGUACGAAGUUUCAGCCUGUGAGGACAUCCAGGGUCACAGGCUGAAGCUUCGUGCAC
B10: hsa-mir-6759 (structured_RNA)
RNA: GGGAAGUUAUUCCAGAGGGACCUACGUUGGUGUACGAAGUUUCAGCGUCUGUUUUCUUCAUGGUUUUCUGACGCUGAAGCUUCGUGCAC
B11: hsa-mir-3620 (structured_RNA)
RNA: GGGAGCACUAAAAGGGAAGAGCCUCCAUGGUGUACGAAGUUUCAGCUGGGCCAAGGCUGAAGCUUCGUGCAC
B12: hsa-mir-1302-8 (structured_RNA)
RNA: GGGACAGAUUGGUGCGUAUGGUAAACAUGGUGUACGAAGUUUCAGCACAUGCAGUAUUUGGGCUGAAGCUUCGUGCAC
B13: hsa-mir-1229 (structured_RNA)
RNA: GGGAACUGCAUGGCAAAUCACGGACCUCGGUGUACGAAGUUUCAGCAGAGCGUGGGCUGGGGUUCAGGGACACCCUCUGCUGAAGCUUCGUGCAC
B14: hsa-mir-623 (structured_RNA)
RNA: GGGAAGGUCUAGUACUUACUCUCUCGCCGGUGUACGAAGUUUCAGCGGGUUGCAUCCUAAGCUGUGCUGGAGCUUCCCGCUGAAGCUUCGUGCAC
B15: hsa-mir-5707 (structured_RNA)
RNA: GGGAACUAAUUUAGAGGCUCACCGAGAAGGUGUACGAAGUUUCAGCAGGCACAUAUGUGAACAUUGUACCAGCUGAAGCUUCGUGCAC
B16: hsa-mir-192 (structured_RNA)
RNA: GGGACGGUACUUUCGCGUAACUGGUACAGGUGUACGAAGUUUCAGCACAGCCAGUGCUCUCGUCUCCCCUCUGGCUGCGCUGAAGCUUCGUGCAC
B17: hsa-mir-6514 (structured_RNA)
RNA: GGGAAGCCAUUAUACGCGGAAAUAGCUUGGUGUACGAAGUUUCAGCCUGGCAUUUACGAGUCAGAGUUCUUACAGAGCUGCGCUGAAGCUUCGUGCAC
B18: hsa-mir-4493 (structured_RNA)
RNA: GGGACGCGACUAACCGGGUAGCAAUACGGGUGUACGAAGUUUCAGCUUCCGGUGAUUAUCACAGCCAUGCCUUUACCUCCAGAAGCUGAAGCUUCGUGCAC
B19: hsa-mir-941-4_941-5_941-2_941-3_941-1 (structured_RNA)
RNA: GGGACGAGGAACCCAAACCCCGUAAUACGGUGUACGAAGUUUCAGCACAGCGCCACGGAAGAGGACGCAGCUGAAGCUUCGUGCAC
B20: hsa-mir-3180-1_3180-3_3180-2 (structured_RNA)
RNA: GGGCCUUUGCCGUCUCCGAAGUAGGAACGGUGUACGAAGUUUCAGCCCCACGUCGCAUGCGCCCCGGGAAAGCGUGGGGCUGAAGCUUCGUGCAC
B21: hsa-mir-139 (structured_RNA)
RNA: GGGACUACGAAGGCAGUUCCGGGCAAAUGGUGUACGAAGUUUCAGCUCCAGUGUGGCUCGGAGGCUGGAGCUGAAGCUUCGUGCAC
B22: hsa-mir-6763 (structured_RNA)
RNA: GGGAGCGGCAUAAGGGUUCCACCAUAACGGUGUACGAAGUUUCAGCGGAGCAGACAGACCCAACCUCAUGCUCCGCUGAAGCUUCGUGCAC
B23: hsa-mir-218-1 (structured_RNA)
RNA: GGGAAGGCCGUAGUCCGUGAAAGGCAAUGGUGUACGAAGUUUCAGCCCAUGUGGUUGCGAGGUAUGAGUAAAACAUGGGCUGAAGCUUCGUGCAC

target: U1A (Homo sapiens, UniProt P09012); assay: FOREST: bead pull-down of RNA structure library v1, barcode microarray; U1A/LIN28A: 20 mM HEPES pH 7.5, 80 mM KCl, 20 mM NaCl, 10% glycerol, 2 mM DTT, 0.1 ug/uL BSA, 4 C; BG4/CIRBP/DHX36: 10 mM Tris-HCl pH 7.5, 100 mM KCl (or LiCl),; high values mean tight binding

| Binder | binding signal [z-score] |
| --- | --- |
| B1 | 1.04 |
| B2 | 1.04 |
| B3 | 1.03 |
| B4 | 1.03 |
| B5 | 1.03 |
| B6 | 1.02 |
| B7 | 1.02 |
| B8 | 1.02 |
| B9 | 1.02 |
| B10 | 1.01 |
| B11 | 1 |
| B12 | 1 |
| B13 | 0.998 |
| B14 | 0.99 |
| B15 | 0.984 |
| B16 | 0.981 |
| B17 | 0.979 |
| B18 | 0.972 |
| B19 | 0.968 |
| B20 | 0.96 |
| B21 | 0.959 |
| B22 | 0.954 |
| B23 | 0.953 |

target: T1, LIN28A; assay: as above

| Binder | binding signal [z-score] |
| --- | --- |
| B1 | -0.782 |
| B2 | 0.421 |
| B3 | 1.07 |
| B4 | 1.73 |
| B5 | 0.141 |
| B6 | -0.8 |
| B7 | -0.103 |
| B8 | 1.14 |
| B9 | 0.0846 |
| B10 | -0.337 |
| B11 | -0.345 |
| B12 | 0.309 |
| B13 | 0.596 |
| B14 | -0.94 |
| B15 | -1.31 |
| B16 | -0.497 |
| B17 | 1.23 |
| B18 | 0.586 |
| B19 | -1.45 |
| B20 | -1.05 |
| B21 | -1.34 |
| B22 | -0.405 |
| B23 | 2.02 |

target: T2, CIRBP; assay: as above

| Binder | binding signal [z-score] |
| --- | --- |
| B1 | -0.106 |
| B2 | 0.593 |
| B3 | 0.0048 |
| B4 | 0.246 |
| B5 | 0.564 |
| B6 | -2.12 |
| B7 | -2.24 |
| B8 | 0.812 |
| B9 | -1.14 |
| B10 | -0.158 |
| B11 | -0.305 |
| B12 | 0.978 |
| B13 | 0.892 |
| B14 | -0.576 |
| B15 | 0.506 |
| B16 | 0.387 |
| B17 | 0.0587 |
| B18 | 0.151 |
| B19 | -0.101 |
| B20 | -1.75 |
| B21 | -0.474 |
| B22 | -0.842 |
| B23 | 0.53 |

target: T3, DHX36; assay: as above

| Binder | binding signal [z-score] |
| --- | --- |
| B1 | 1.27 |
| B2 | 0.014 |
| B3 | -0.809 |
| B4 | 0.546 |
| B5 | 0.414 |
| B6 | -0.712 |
| B7 | -0.56 |
| B8 | -0.0162 |
| B9 | -0.471 |
| B10 | -0.232 |
| B11 | -0.969 |
| B12 | 0.202 |
| B13 | 0.319 |
| B14 | -0.972 |
| B15 | -1.01 |
| B16 | 0.496 |
| B17 | -0.178 |
| B18 | 0.31 |
| B19 | -0.52 |
| B20 | 0.484 |
| B21 | -0.381 |
| B22 | -0.61 |
| B23 | 0.593 |

From publication PMC7723054
